{"source": "PubChem BioAssay AID1346984", "about": "(Tox21, 2019)", "note": "This is a selection; strong and weak results do not stand in their true shares. Results filed as inconclusive are left out. Active and inactive are the calls of the source. Calls come from the whole dose curve; as a rule, active = well fitted activation curve with a large enough effect in the repeat runs; inconclusive = weak or mixed curves; inactive = no such curve, though single readings can be large or run the other way. % is set by controls: 0 for no effect and ±100 for the full control effect."}
{"biological_target": "Nuclear receptor subfamily 1 group I member 2 (Homo sapiens) (UniProt O75469)", "test": "CYP3A4 induction through human pregnane X receptor (PXR) by small molecules, qHTS assay; note: nearly all actives have a fitted effect of over 40% in size", "details": "DPX-2 HepG2 PXR, CYP3A4-luciferin luminescence, 24 h; at 46.1 µM (top of the series) unless noted", "source_text": "National Center for Advancing Translational Sciences [NCATS]\nNIH Chemical Genomics Center [NCGC]\nU.S. Environmental Protection Agency [EPA]\nNational Institutes of Environmental Health Sciences [NIEHS]\nNational Toxicology Program [NTP]\nThe Pregnane X receptor (PXR), a ligand activated nuclear receptor plays a critical role in the regulation of genes involved in drug metabolism and transporters. Activation of PXR is responsible for unwanted adverse drug reactions. PXR binds xenobiotics and when compounds interact with PXR enhances the expression of CYP3A genes. Identifying the compounds with the potential for PXR activation and CYP3A4 induction can be of importance in improving the efficacy of drugs with less toxicity and avoiding drug-drug interactions.\nDPX-2 (Puracyp, Inc.) cell lines, used for screening against human PXR activation has HepG2 cells co-transfected with a PXR response element and a luciferase construct containing CYP3A4 promoter. Increase in luciferase activity can be used to identify the compounds that cause the induction of CYP3A4.\nDPX-2 cells were dispensed at 2,000 cells per well in 5uL of assay medium into white, solid-bottom 1536-well plates using a Multidrop Combi dispenser (Thermo Scientific). The assay plates were incubated at 37C for 5hr before transferring 23nL of test compounds dissolved in DMSO and positive control via Pintool station (Wako). The assay plates were incubated at 37C for 24hr. After 24hr compound treatment, 1uL of 3uM (final concentration) P450 substrate (P450-Glo CYP3A4 screening system with Luciferin-IPA, Promega) was added by a Flying Reagent Dispenser (FRD, Aurora Discovery). The assay plates were incubated for 3hr at 37C. Then 5ul One-Glo assay reagent (Promega) was added to each plate by an FRD and following 30 min incubation at room temperature, luciferase activity was quantified on a ViewLux plate reader (Perkin Elmer)."}
{"smiles": "O=[N+]([O-])[O-].[NH4+]", "activation": "inactive: 9.3%"}
{"smiles": "CN(C)CCS", "activation": "inactive: -0.907%"}
{"smiles": "O=[N+]([O-])c1cccc([N+](=O)[O-])c1", "activation": "inactive: -3.35%"}
{"smiles": "O=[N+]([O-])OCC(CO[N+](=O)[O-])(CO[N+](=O)[O-])CO[N+](=O)[O-]", "activation": "inactive: -1%"}
{"smiles": "C/C1=C2N=C(/C=C3N=C(/C(C)=C4\\[N-][C@@](C)([C@@H]5N=C1[C@](C)(CCC(=O)NC[C@@H](C)OP(=O)([O-])O[C@H]1[C@@H](O)[C@@H](n6cnc7cc(C)c(C)cc76)O[C@@H]1CO)[C@H]5CC(N)=O)[C@@](C)(CC(N)=O)[C@@H]4CCC(N)=O)[C@@](C)(CC(N)=O)[C@@H]\\3CCC(N)=O)C(C)(C)[C@@H]/2CCC(N)=O.[C-]#N.[Co+3]", "activation": "inactive: -1.97% [at 20.6 µM]"}
{"smiles": "OCCSCCO", "activation": "inactive: -9.94%"}
{"smiles": "CC(C)OP(=O)(F)OC(C)C", "activation": "inactive: -10.2%"}
